Experiments:
[1] = biological target: T1, HTH-type quorum-sensing regulator RhlR (Pseudomonas aeruginosa (strain ATCC 15692 / PAO1 / 1C / PRS 101 / LMG12228)) (UniProt P54292); experiment: Modulation of RhlR in Pseudomonas aeruginosa assessed as reduction in biofilm formation at 10 uM incubated for 48 hrs under dynamic condition by 4',6-diamidino-2-phenylindole staining based confocal laser scanning microscopy relative to control; design: scale not given: the % may be the effect or the level left
T1 sequence (whole entry): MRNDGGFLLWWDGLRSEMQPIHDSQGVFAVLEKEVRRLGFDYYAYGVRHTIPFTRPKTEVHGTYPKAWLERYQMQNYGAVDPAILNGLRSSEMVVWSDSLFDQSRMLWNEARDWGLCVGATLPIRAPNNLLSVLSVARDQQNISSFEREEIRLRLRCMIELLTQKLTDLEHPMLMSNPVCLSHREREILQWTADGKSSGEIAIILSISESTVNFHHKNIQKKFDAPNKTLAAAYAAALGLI

[2] = biological target: T1, HTH-type quorum-sensing regulator RhlR (Pseudomonas aeruginosa (strain ATCC 15692 / PAO1 / 1C / PRS 101 / LMG12228)); experiment: Antagonist activity at RhlR in Pseudomonas aeruginosa assessed as reduction in pyocyanin production at 10 uM after 24 hrs by RT-qPCR method relative to control; design: scale not given: the % may be the effect or the level left

With `CCCC(=O)C#Cc1ccc(F)c(F)c1` the Activity [1] was 74% and the Activity [2] was 44%.

Source: ChEMBL document CHEMBL4619802, “Discovery and Characterization of Pure RhlR Antagonists against Pseudomonas aeruginosa Infections” (J Med Chem, 2020)
